ChEMBL document CHEMBL2176978, “Fragment-based discovery of bromodomain inhibitors part 2: optimization of phenylisoxazole sulfonamides” (J Med Chem, 2012)

By UniProt entry, the sequences of proteins in these tests, tags left out.
UniProt Q15059, whole entry: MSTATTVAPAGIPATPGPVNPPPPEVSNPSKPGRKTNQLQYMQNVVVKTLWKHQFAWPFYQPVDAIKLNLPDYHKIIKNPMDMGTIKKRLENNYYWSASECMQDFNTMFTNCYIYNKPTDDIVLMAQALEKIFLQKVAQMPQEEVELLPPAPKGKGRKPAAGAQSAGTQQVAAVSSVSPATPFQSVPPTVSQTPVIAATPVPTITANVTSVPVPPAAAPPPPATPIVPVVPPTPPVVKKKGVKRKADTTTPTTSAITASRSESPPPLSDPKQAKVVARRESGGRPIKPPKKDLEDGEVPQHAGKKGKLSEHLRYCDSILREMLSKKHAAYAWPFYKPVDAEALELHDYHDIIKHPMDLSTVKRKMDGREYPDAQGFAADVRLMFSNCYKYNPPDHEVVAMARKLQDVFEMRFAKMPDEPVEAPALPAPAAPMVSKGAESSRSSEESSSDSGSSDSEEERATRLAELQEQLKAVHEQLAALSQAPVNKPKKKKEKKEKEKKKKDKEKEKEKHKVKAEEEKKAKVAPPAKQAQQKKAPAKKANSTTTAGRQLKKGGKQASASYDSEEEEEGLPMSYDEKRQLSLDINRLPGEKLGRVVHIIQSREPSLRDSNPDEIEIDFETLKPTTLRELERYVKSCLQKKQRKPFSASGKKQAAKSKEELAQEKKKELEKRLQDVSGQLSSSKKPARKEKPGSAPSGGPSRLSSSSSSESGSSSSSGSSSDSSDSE

Tests used:
[1] = molecular target: T1, Bromodomain-containing protein 3 (Homo sapiens, UniProt Q15059); assay: Inhibition of His6-tagged BRD3 expressed in Escherichia coli after 60 mins by fluorescence anisotropy assay
[2] = molecular target: T1, Bromodomain-containing protein 3; assay: Inhibition of His6-tagged BRD3 expressed in Escherichia coli assessed as inhibition of binding to SGRG-K(Ac)-GG-K(Ac)-GLG-K(Ac)-GGA-K(Ac)-RHGSGSK-biotin after 1 hr by TR-FRET assay
[3] = molecular target: T1, Bromodomain-containing protein 3; assay: Binding affinity to His6-tagged BRD3 expressed in Escherichia coli by isothermal colorimetric analysis

Cc1nnc2n1-c1ccccc1C(c1ccccc1)=N[C@H]2NC(=O)OCc1ccccc1
IC50 [1]: 350 nM | IC50 [2]: 220 nM | Kd [3]: 19 nM
